Laboratory results published in patent US11773129B2, “Methods of preventing or treating atherosclerosis with inhibitors of specific isoenzymes of human neuraminidase” (THE GOVERNORS OF THE UNIVERSITY OF ALBERTA, priority 2017, dated 2023).

Tested on: NEU1, NEU2, NEU3, NEU4
Experiment: Isoenzyme specificity/selectivity from 4MU-NANA IC50 across the four human neuraminidases
Format: biochemical
Settings: isoenzyme(s) the compound is specific for; dual (bispecific) when ratio of IC50 is about 3 or less

For `CC(=O)N[C@H]1[C@H]([C@H](O)[C@H](O)Cn2cc(CO)nn2)OC(C(=O)O)=C[C@@H]1O`, the Target was “NEU4”.
